Measurements: article PMC5862788 (Antiviral therapy, 2018)

Test system: HCV
Settings: in vivo

Q: How did the “δ (loss rate of infected cells)” value turn out when `CS(=O)(=O)Nc1ccc2c(c1)S(=O)(=O)N=C(C1=C(O)[C@@H]3[C@H]4CC[C@H](C4)[C@@H]3N(Cc3ccc(F)cc3)C1=O)N2` [setrobuvir] was run?
A: 0.093 d^−1 and 0.0933 (52) d^−1

Several values for one entry are separate records, joined by “and”; a condition that tells them apart may be missing. Identical values can stand only once.
